{"source": "patent US11572399B2", "about": "“Long-acting GIP peptide analogues” (University of Copenhagen, priority 2017, dated 2023)", "key": {"[1]": {"biological_target": "T1, human GIP receptor (Homo sapiens, UniProt P48546)", "T1 construct": "host or cells: COS-7, transient transfection (calcium phosphate), cDNA in pCMV-Script", "T1 sequence (P48546 22-466)": "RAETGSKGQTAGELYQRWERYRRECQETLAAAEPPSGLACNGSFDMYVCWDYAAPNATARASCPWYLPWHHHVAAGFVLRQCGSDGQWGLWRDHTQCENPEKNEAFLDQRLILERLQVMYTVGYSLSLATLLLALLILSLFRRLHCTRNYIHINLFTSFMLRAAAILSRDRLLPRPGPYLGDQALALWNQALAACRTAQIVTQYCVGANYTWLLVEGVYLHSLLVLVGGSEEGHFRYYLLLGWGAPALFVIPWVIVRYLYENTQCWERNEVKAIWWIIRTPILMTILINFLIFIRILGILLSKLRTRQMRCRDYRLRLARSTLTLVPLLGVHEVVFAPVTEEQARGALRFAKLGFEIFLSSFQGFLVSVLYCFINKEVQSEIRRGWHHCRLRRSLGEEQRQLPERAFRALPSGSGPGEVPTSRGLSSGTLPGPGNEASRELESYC", "assay": "cAMP accumulation assay, antagonism of a GIP-mediated cAMP response (50-80% of max)", "type": "cell-based", "details": "fold vs GIP(3-30)NH2; Table 3b", "method": "The day after, the cells were washed twice with Hepes buffered saline (HBS) buffer and incubated with HBS and 1 mM 3-isobutyl-1-methylxanthine (IBMX) for 30 min at 37° C. […] The HitHunter™ cAMP XS assay (DiscoveRx) was carried out according to the manufacturer's instructions."}, "[2]": {"biological_target": "T1, human GIP receptor", "assay": "125I-human GIP competition binding assay, in the presence and absence of 2% HSA;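 note: nonspecific binding taken as radioligand bound to untransfected cells, IC50 obtained from nonlinear regression fits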", "details": "fold decrease in affinity compared to GIP(3-30)NH2; Table 3b"}}}
{"compound": "CCCCCCCCCCCCCCCC(=O)NCCCC[C@H](NC(=O)[C@H](CC(=O)O)NC(=O)[C@H](CCSC)NC(=O)[C@H](C)NC(=O)[C@@H](NC(=O)[C@H](CO)NC(=O)[C@H](Cc1ccc(O)cc1)NC(=O)[C@H](CC(=O)O)NC(=O)[C@H](CO)NC(=O)[C@@H](NC(=O)[C@H](Cc1ccccc1)NC(=O)[C@@H](NC(=O)CNC(=O)[C@@H]1CCC(=O)N1)[C@@H](C)O)[C@@H](C)CC)[C@@H](C)CC)C(=O)N[C@H](C(=O)N[C@@H](Cc1c[nH]cn1)C(=O)N[C@@H](CCC(N)=O)C(=O)N[C@@H](CCC(N)=O)C(=O)N[C@@H](CC(=O)O)C(=O)N[C@@H](Cc1ccccc1)C(=O)N[C@H](C(=O)N[C@@H](CC(N)=O)C(=O)N[C@@H](Cc1c[nH]c2ccccc12)C(=O)N[C@@H](CC(C)C)C(=O)N[C@@H](CC(C)C)C(=O)N[C@@H](C)C(=O)N[C@@H](CCC(N)=O)C(=O)N[C@@H](CCCCN)C(N)=O)C(C)C)[C@@H](C)CC", "note": "[AT109]", "values": [{"measurement": "cAMP - antagonisme fold (paired)", "setting": "[1]", "result": 8.0, "unit": "fold"}, {"measurement": "Binding fold (paired)", "setting": "[2]", "result": 74, "unit": "fold"}]}
